Biological target: ERCC1-XPF (Homo sapiens, UniProt Q92889)
Assay: Microplate fluorescence incision assay of ERCC1-XPF endonuclease activity
Format: biochemical
Details: Table 7; at least three experiments of Vo versus concentration

Amino acid sequences for entries named in this document (tags omitted).
UniProt Q92889, whole entry: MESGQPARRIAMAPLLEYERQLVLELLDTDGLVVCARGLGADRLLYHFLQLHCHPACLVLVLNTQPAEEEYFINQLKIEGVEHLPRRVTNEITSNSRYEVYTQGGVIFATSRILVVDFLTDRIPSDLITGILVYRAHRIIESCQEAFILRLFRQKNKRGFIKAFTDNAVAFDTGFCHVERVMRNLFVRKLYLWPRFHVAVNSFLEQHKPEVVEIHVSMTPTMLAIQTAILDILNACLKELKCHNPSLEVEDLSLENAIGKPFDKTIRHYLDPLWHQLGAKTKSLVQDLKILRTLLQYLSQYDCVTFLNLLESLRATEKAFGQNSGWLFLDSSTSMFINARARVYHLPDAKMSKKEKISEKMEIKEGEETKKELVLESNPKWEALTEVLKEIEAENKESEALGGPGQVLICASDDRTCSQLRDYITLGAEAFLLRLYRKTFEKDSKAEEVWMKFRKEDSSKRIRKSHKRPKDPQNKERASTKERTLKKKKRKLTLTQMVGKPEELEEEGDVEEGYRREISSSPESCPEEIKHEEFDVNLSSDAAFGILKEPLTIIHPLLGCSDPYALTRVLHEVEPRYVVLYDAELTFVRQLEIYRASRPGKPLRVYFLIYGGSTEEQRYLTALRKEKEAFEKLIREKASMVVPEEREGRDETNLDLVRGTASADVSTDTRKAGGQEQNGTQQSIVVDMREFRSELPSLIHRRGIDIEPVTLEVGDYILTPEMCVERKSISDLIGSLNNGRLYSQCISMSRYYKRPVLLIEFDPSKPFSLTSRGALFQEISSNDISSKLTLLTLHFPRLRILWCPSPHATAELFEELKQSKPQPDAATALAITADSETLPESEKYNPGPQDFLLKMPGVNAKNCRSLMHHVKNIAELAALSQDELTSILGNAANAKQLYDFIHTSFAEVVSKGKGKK

COc1ccc2nc3cc(Cl)ccc3c(Nc3ccc(O)c(CN4CCN(CCN(C)C)CC4)c3)c2n1
IC50: 396 nM

Reference: patent publication US20220306603A1, “TARGETING DNA REPAIR IN TUMOR CELLS VIA INHIBITION OF ERCC1-XPF” (The Governors of the University of Alberta, priority 2019, published 2022)
